The results in this text go back to paper PMC7961380, “A Systematic Study of the In Vitro Pharmacokinetics and Estimated Human In Vivo Clearance of Indole and Indazole-3-Carboxamide Synthetic Cannabinoid Receptor Agonists Detected on the Illicit Drug Market” (Molecules, 2021).

The data set can be described thus: in vitro. The conditions noted are these: human, pooled human plasma, pH 7.4, PPB (%), equilibrium dialysis 5 h, 37 °C.

SMILES strings stand for the structures.

The fraction unbound is the share of the substance not bound to proteins or other matrix. Read a high fraction unbound as much free substance. In the case of `CC(=O)CC(c1ccccc1)c1c(O)c2ccccc2oc1=O` (stereo not shown) [warfarin, reference compound], the fraction unbound at 5 h, 10 µg mL^−1 was 0.016.
